Experimental findings from paper PMC11099015, “The EV71 2A protease occupies the central cleft of SETD3 and disrupts SETD3-actin interaction” (Nature Communications, 2024) are described below.

The target in the test is AP-actin (human β-actin A204E/P243K) (human, UniProt P60709 1-375). As to the kind of experiment: BLI; competition by sequential loading: biotinylated SETD3 on SA biosensors, first 20 μM 2A (or G buffer) then 20 μM AP-actin, and the reverse order; G buffer; 25 °C. The note with it: both partners purified.

B1: SETD3(1−498) (domain or fragment)
chain: MGKKSRVKTQKSGTGATATVSPKEILNLTSELLQKCSSPAPGPGKEWEEYVQIRTLVEKIRKKQKGLSVTFDGKREDYFPDLMKWASENGASVEGFEMVNFKEEGFGLRATRDIKAEELFLWVPRKLLMTVESAKNSVLGPLYSQDRILQAMGNIALAFHLLCERASPNSFWQPYIQTLPSEYDTPLYFEEDEVRYLQSTQAIHDVFSQYKNTARQYAYFYKVIQTHPHANKLPLKDSFTYEDYRWAVSSVMTRQNQIPTEDGSRVTLALIPLWDMCNHTNGLITTGYNLEDDRCECVALQDFRAGEQIYIFYGTRSNAEFVIHSGFFFDNNSHDRVKIKLGVSKSDRLYAMKAEVLARAGIPTSSVFALHFTEPPISAQLLAFLRVFCMTEEELKEHLLGDSAIDRIFTLGNSEFPVSWDNEVKLWTFLEDRASLLLKTYKTTIEEDKSVLKNHDLSVRAKMAIKLRLGEKEILEKAVKSAAVNREYYRQQMEEKAP
modifications: biotinylated with a biotinylation kit where it was immobilised in BLI; not in SEC, AUC or the crystal
Turning to B1, the binding result is “binds”.
